Measured values taken from PubChem BioAssay (EPA / NIEHS).
The entries are a selection whose mix differs from that of the whole data set. Active and inactive are the calls of the source. The calls were made as follows: active = hit-call score of the fitted dose curve at least 0.9, where 1 is the maximum; inactive = score below 0.9.

Protein sequences, listed by entry. Tags and fused reporters are not part of them.
UniProt P08684, whole entry, looked up: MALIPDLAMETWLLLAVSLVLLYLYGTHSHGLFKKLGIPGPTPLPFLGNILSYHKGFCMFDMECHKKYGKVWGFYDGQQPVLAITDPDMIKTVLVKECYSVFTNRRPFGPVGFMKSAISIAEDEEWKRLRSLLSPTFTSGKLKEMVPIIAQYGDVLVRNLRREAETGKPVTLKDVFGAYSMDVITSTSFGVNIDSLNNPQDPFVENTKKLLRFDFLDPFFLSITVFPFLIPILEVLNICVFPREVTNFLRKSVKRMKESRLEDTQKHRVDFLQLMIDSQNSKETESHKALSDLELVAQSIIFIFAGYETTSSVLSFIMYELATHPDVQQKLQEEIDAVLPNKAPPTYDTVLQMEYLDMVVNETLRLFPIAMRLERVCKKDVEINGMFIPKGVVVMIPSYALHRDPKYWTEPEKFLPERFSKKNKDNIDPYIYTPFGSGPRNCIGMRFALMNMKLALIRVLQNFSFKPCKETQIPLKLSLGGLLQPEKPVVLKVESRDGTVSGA
UniProt P01133, whole entry, looked up: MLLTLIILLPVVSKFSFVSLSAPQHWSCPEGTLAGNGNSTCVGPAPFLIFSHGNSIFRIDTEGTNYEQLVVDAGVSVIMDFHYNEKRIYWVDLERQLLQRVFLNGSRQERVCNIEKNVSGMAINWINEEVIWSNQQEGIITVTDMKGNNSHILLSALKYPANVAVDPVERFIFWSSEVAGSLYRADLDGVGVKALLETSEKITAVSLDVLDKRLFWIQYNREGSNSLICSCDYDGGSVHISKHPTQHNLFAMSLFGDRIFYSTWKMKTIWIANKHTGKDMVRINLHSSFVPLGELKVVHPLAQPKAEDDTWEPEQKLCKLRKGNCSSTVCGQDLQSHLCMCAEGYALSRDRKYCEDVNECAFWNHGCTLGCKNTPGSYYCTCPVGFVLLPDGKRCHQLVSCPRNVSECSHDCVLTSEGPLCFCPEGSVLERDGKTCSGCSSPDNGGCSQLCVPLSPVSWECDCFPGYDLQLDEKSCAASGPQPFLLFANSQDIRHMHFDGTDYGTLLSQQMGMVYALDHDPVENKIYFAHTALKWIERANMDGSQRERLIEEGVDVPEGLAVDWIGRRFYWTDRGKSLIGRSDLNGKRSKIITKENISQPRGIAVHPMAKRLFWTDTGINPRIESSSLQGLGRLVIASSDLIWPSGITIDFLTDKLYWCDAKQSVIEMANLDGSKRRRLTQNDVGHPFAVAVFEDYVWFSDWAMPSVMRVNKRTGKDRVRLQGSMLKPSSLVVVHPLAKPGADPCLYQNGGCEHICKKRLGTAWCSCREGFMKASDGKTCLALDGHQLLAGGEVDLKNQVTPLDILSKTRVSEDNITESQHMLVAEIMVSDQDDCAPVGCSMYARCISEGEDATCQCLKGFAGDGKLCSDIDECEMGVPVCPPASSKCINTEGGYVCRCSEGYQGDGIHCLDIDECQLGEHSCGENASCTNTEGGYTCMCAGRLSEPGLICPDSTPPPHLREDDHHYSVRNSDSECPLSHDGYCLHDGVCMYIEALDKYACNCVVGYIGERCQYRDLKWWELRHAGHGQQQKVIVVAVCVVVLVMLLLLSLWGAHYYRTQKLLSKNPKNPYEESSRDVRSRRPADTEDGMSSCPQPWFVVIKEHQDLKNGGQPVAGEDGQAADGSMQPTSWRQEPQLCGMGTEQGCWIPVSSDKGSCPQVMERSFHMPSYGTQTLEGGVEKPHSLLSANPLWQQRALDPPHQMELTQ

The molecules below were run on CYP2C9 (gene 1559) (assay: LTEA_HepaRG_CYP2C9: Life Technologies and Expression Analysis (LTEA) Assay for CYP2C9 using HepaRG (AID 2283484)). Conditions: actives raise or lower the signal; mRNA level, 48 h.
How it was run: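 Differentiated human HepaRG cells were exposed 48 h in serum-free induction medium to eight half-log concentrations up to 100 uM in 0.5% DMSO. CYP2C9 mRNA was measured by qRT-PCR, normalized to ACTB, GAPDH and POLR2A, and fitted bidirectionally against DMSO.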

Row | SMILES | outcome | AC50
1 | CN(C(=O)Cc1cccc2occc12)[C@H]1CC[C@@]2(CCCO2)C[C@@H]1N1CCCC1 | inactive | –
2 | CC(C)OP(=S)(OC(C)C)SCCNS(=O)(=O)c1ccccc1 | – | active: 84.2 µM
3 | Cc1cc([N+](=O)[O-])cc([N+](=O)[O-])c1O | – | active: 8.89 µM
4 | O=C1C2CC=CCC2C(=O)N1SC(Cl)(Cl)C(Cl)Cl (centres undefined) | inactive | –

The molecules below were run on CYP4A11 (gene 1579) (assay: LTEA_HepaRG_CYP4A11: Life Technologies and Expression Analysis (LTEA) Assay for CYP4A11 using HepaRG (AID 2283486)). Conditions: actives raise or lower the signal; mRNA level, 48 h.
How it was run: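 Readout is CYP4A11 mRNA induction or suppression (qRT-PCR, ACTB/GAPDH/POLR2A normalization) in human HepaRG cells after 48 h chemical treatment, concentrations to 100 uM in 0.5% DMSO, fitted bidirectionally against vehicle.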

Row | SMILES | outcome | AC50
5 | CN(C(=O)Cc1cccc2occc12)[C@H]1CC[C@@]2(CCCO2)C[C@@H]1N1CCCC1 | inactive | –
6 | CC(C)OP(=S)(OC(C)C)SCCNS(=O)(=O)c1ccccc1 | – | active: 50 µM
7 | Cc1cc([N+](=O)[O-])cc([N+](=O)[O-])c1O | – | active: 10.2 µM
8 | O=C1C2CC=CCC2C(=O)N1SC(Cl)(Cl)C(Cl)Cl (centres undefined) | – | active: 9.92 µM

These molecules were tested on Cytochrome P450 3A4 (Homo sapiens) (UniProt P08684) (assay: LTEA_HepaRG_CYP3A4: Life Technologies and Expression Analysis (LTEA) Assay for CYP3A4 using HepaRG (AID 2283487)). Conditions: actives raise or lower the signal; mRNA level, 48 h.
How it was run: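 In a human hepatic line (HepaRG), duplicate wells were treated 48 h with up to 100 uM chemical in half-log dilutions. Endpoint: CYP3A4 mRNA induction or loss relative to 0.5% DMSO vehicle, by qRT-PCR.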

Row | SMILES | AC50
9 | CN(C(=O)Cc1cccc2occc12)[C@H]1CC[C@@]2(CCCO2)C[C@@H]1N1CCCC1 | active: 21.3 µM
10 | CC(C)OP(=S)(OC(C)C)SCCNS(=O)(=O)c1ccccc1 | active: 88.5 µM
11 | Cc1cc([N+](=O)[O-])cc([N+](=O)[O-])c1O | active: 6.44 µM

These molecules were tested on DNA damage-inducible transcript 3 (DDIT3), DDIT3 (gene 1649) (assay: LTEA_HepaRG_DDIT3: Life Technologies and Expression Analysis (LTEA) Assay for DNA damage-inducible transcript 3 (DDIT3) using HepaRG (AID 2283488)). Conditions: actives raise or lower the signal; mRNA level, 48 h.
How it was run: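 Changes in DDIT3 transcript, in either direction relative to 0.5% DMSO vehicle, were quantified by TaqMan qRT-PCR after 48 h chemical exposure of HepaRG cells at 8 concentrations, maximum 100 uM.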

Row | SMILES | outcome | AC50
12 | CN(C(=O)Cc1cccc2occc12)[C@H]1CC[C@@]2(CCCO2)C[C@@H]1N1CCCC1 | inactive | –
13 | CC(C)OP(=S)(OC(C)C)SCCNS(=O)(=O)c1ccccc1 | – | active: 72.4 µM
14 | Cc1cc([N+](=O)[O-])cc([N+](=O)[O-])c1O | – | active: 65.9 µM
15 | O=C1C2CC=CCC2C(=O)N1SC(Cl)(Cl)C(Cl)Cl (centres undefined) | inactive | –

These molecules were tested on Pro-epidermal growth factor (Homo sapiens) (UniProt P01133) (assay: LTEA_HepaRG_EGF: Life Technologies and Expression Analysis (LTEA) Assay for Epidermal growth factor (EGF) using HepaRG (AID 2283489)). Conditions: actives raise or lower the signal; mRNA level, 48 h.
Experimental: LTEA_HepaRG is a cell based, multiplexed-readout assay that uses HepaRG, a human liver cell line, with measurements taken at 48 hours after chemical dosing on a 96-well plate.LTEA_HepaRG_EGF is one of 102 assay component(s) measured in the LTEA HepaRG cell culture assay. It is a marker of Cell proliferation, survival, death.Data from the assay component LTEA_HepaRG_EGF was analyzed into 1 endpoint. This assay endpoint, LTEA_HepaRG_EGF, was analyzed with bidirectional fitting relative to DMSO as the negative control and baseline of activity. Using a type of inducible reporter, measures of mRNA induction for gain or loss-of-signal activity can be used to understand regulation of transcription factor activity. To generalize the intended target to other relatable targets, this assay endpoint is annotated to the growth factor intended target family, where the subfamily is EGF-like domain.
A total of 1060 chemcials from the ToxCast library were tested in eight-point concentration-response experiments. Cell culture and cytotoxicity assays were conducted at Thermo Fisher Scientific's Custom Services facility (Madison, WI). A single lot of human HepaRG cells (Thermo Fisher Scientific, Frederick, MD) was used for the cell culture experiments. 96-well format collagen type I coated plates of human HepaRG cells were prepared using established methods. Briefly, cryopreserved HepaRG cells were thawed, plated at a density of approximately 100,000 cells/well in HepaRG Thaw, Plate, and General Purpose media (HPRG770, Thermo Fisher Scientific), and incubated for 48 hours. 0.5% DMSO was selected as vehicle control to balance the requisite need of DMSO in HepaRG cultures to maintain differentiation (for example, baseline metabolism, proportions of hepatocytes vs. cholangiocytes), while enabling further hepatic receptor pathway activation (for example, PXR and CAR) in response to chemical exposure. 48 hours after plating, the culture medium was replaced with HepaRG Serum-Free Incudtion Media. Cells were exposed to each test chemical in duplicate and maintained in CO2 incubators for another 48 hours. Chemical plates were thawed to room temperature and 200x concentrations of treatment groups were prepared. 8-point conentration-reponse curves were made with the highest exposure at 100 uM, followed by half-log dilutions, all in 0.5% DMSO. […] Fluidigm's 96.96 Dynamic ArrayTM (Fluidigm, Amsterdam, the Netherlands) technology was used for gene expression analyses by quantitative reverse transcription polymerase chain reaction (qRT-PCR, performed by Quintiles/Expression Analysis, Durham, NC)89. […]

Row | SMILES | outcome | AC50
16 | CN(C(=O)Cc1cccc2occc12)[C@H]1CC[C@@]2(CCCO2)C[C@@H]1N1CCCC1 | inactive | –
17 | CC(C)OP(=S)(OC(C)C)SCCNS(=O)(=O)c1ccccc1 | inactive | –
18 | Cc1cc([N+](=O)[O-])cc([N+](=O)[O-])c1O | – | active: 3.35 µM
19 | O=C1C2CC=CCC2C(=O)N1SC(Cl)(Cl)C(Cl)Cl (centres undefined) | inactive | –
